This assay addresses T1, porcine liver PMPMEase (Sus scrofa, UniProt Q29550).
T1 sequence (Q29550 19-566): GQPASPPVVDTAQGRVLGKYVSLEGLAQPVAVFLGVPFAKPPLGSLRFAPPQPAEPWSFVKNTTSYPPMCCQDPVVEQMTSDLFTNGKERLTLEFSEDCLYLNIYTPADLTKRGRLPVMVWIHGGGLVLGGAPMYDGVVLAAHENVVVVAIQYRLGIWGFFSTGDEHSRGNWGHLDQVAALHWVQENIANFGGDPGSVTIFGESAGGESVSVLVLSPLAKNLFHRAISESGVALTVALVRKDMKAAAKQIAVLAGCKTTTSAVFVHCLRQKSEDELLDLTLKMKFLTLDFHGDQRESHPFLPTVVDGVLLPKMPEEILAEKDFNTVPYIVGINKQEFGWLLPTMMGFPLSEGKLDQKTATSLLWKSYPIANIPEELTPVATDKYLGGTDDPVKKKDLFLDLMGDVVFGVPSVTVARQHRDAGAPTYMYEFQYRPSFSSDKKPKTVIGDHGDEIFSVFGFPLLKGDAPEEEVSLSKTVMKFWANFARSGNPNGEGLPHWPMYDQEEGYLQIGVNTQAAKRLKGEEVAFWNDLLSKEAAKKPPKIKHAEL
The conditions noted are these: PMPMEase 82.5 μg, pre-incubation 0-30 min, 100-fold dilution, RD-PNB substrate.

Each structure is given as a SMILES string.

For `O=S(=O)(F)Cc1ccccc1` [PMSF, phenylmethylsulfonyl fluoride, reference compound], the “Kobs/[I]” value turned out to be 6 M⁻¹ s⁻¹.

The values above are taken from article PMC3313490 (Current Cancer Drug Targets, 2011).
